The list shows a part of the results, in another mix than the full data. Results with a measured potency or affinity are listed apart. Active and inactive are the calls of the source. No rule for the calls is given here.

A short description of this assay: MALME3 melanoma cell viability loss, dose response, orthogonal assay for MITF inhibitor project, CellTiter-Glo, cherry-picked (AID 493191). To be noted: CellTiter-Glo luminescence, 24 h; at 35 µM (top of the series).
For the compound `CCc1nc2c(n1)c1c(non1O)c1c2no[n+]1[O-]`, the activity change, negative = inhibition was inactive: -33.1%.

For the origin of these results see PubChem BioAssay AID493191 (Broad Institute, 2011).
